# Values quoted from earlier work in US20110312513A1, “BIOMARKERS FOR PREDICTING SUSTAINED RESPONSE TO HCV TREATMENT” (ROCHE MOLECULAR SYSTEMS, INC., priority 2009, published 2011).
# Conditions: human, in vivo; cited from earlier work
structure (smiles),measurement,value
"NC(=O)c1ncn([C@@H]2O[C@H](CO)[C@@H](O)[C@H]2O)n1 [ribavirin, 1-((2R,3R,4S,5R)-3,4-Dihydroxy-5-hydroxymethyl-tetrahydro-furan-2-yl)-1H-[1,2,4]triazole-3-carboxylic acid amide]",toxicity,significant toxicity and is known to induce anemia
